{"source": "patent US6878698B2", "about": "“Anti-inflammatory androstane derivatives” (Glaxo Group Limited, priority 2001, dated 2005)", "assay": "Pharmacokinetics after intravenous (IV) and oral dosing in rats", "conditions": "oral 0.1 mg/kg and IV 0.1 mg/kg, male Wistar Han rats", "note": "Where “and” joins values, the source holds several entries; their conditions need not be identical. Equal values may be shown once."}
{"compound": "C[C@@H]1CC2C3C[C@H](F)C4=CC(=O)C=C[C@]4(C)[C@@]3(F)[C@@H](O)C[C@]2(C)[C@@]1(OC(=O)c1ccco1)C(=O)SCF", "note": "(stereo partly drawn) [Example 1, 6α,9α-Difluoro-17α-[(2-furanylcarbonyl)oxy]-11β-hydroxy-16α-methyl-3-oxo-androsta-1,4-diene-17β-carbothioic acid S-fluoromethyl ester]", "values": [{"measurement": "oral bioavailability", "result": "< 1% and 0.9%"}]}
